Target: androgen receptor (AR) (Homo sapiens, UniProt P10275)
Experiment: Degradation of androgen receptor (AR) protein in VCaP cells by ELISA
Type: cell-based

The chains behind the UniProt entries cited, without tags or fusion partners. Where a name states a change or a piece, a line headed by the entry shows the natural chain unless it says otherwise.
UniProt P10275: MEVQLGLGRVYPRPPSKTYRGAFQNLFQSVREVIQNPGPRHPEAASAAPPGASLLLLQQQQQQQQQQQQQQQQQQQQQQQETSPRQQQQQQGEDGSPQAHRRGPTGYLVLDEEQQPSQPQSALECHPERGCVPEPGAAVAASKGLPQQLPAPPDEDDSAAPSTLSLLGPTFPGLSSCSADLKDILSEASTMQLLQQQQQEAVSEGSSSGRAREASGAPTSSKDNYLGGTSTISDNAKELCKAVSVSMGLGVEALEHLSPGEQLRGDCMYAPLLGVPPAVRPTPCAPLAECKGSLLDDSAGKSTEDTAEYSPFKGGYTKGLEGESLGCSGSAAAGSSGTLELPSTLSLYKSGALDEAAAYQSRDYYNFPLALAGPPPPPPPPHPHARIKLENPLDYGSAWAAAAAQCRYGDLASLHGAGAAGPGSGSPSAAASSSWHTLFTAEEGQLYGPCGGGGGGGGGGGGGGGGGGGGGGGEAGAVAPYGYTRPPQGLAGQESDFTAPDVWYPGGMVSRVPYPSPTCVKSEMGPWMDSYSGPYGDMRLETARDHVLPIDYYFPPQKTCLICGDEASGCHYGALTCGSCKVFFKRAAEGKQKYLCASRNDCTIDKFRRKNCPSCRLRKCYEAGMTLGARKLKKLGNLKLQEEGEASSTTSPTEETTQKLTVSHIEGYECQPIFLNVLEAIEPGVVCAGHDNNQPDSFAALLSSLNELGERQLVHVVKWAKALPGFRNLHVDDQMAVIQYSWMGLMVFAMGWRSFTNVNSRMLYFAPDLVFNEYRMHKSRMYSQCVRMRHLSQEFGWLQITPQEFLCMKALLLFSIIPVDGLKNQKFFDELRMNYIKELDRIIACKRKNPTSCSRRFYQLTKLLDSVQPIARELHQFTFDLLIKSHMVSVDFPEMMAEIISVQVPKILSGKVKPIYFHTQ

Q: How did the DC50 turn out when “N-((1r,4r)-4-(3-chloro-4-cyanophenoxy)cyclohexyl)-5-(2-(2,6-dioxopiperidin-3-yl)-1,3-dioxoisoindolin-5-yl)piperidine-4-yl)-2,7-diazaspiro[3.5]nonan-7-yl)pyrazine-2-carboxamide [Compound 288]” was run?
A: < 10 nM

Q: And the “Dmax (%)” value?
A: ++++ (key: A: >80%; B: 79%-50%; C: 49%-25%; D: <25%)

Reference: patent publication US20230091225A1, “Bifunctional chimeric heterocyclic compounds for targeted degradation of androgen receptors and use thereof” (HINOVA PHARMACEUTICALS INC., priority 2019, published 2023)
